For the assay, the target named is T1, RyR2 (Mus musculus, UniProt E9Q401).
T1 construct: expressed in transfected cells; host or cells: HEK-293 cells stably expressing R-CEPIA1er with doxycycline-inducible WT RyR2
The assay is described as follows: Time-lapse [Ca2+]ER assay (RyR2 R-CEPIA1er assay) in HEK-293 cells with inducible WT RyR2. Type of assay: cell-based. The text has this: To assess the functional potency of novel agents for modulating RyR2 channel activity, we measured changes in Ca^2+ levels in ER of HEK-293 cells with inducible expression of wild-type RyR2 (WT RyR2).[33],[34] Because the expression of WT RyR2 introduces an additional spontaneous Ca^2+ leak from the ER, these cells are suitable for our purpose of testing potential RyR2 stabilizers.[35] The cells additionally stably express the Ca^2+ fluorescence indicator R-CEPIA1er, which is a genetically encoded sensor protein of Ca^2+ in the ER (the cell line was a gift from T. Murayama, Department of Pharmacology, Juntendo University School of Medicine, Tokyo, Japan).[36]
The addition of these compounds, which are known to inhibit excessive cardiac RyR2 activity, should reduce Ca^2+ leak from the ER, thus increasing the R-CEPIA1er fluorescence.
The fluorescence plate reader [Ca^2+]ER assay was performed according to the slightly modified protocol of Murayama and Kurebayashi.[36] […] After the cells were inducted with doxycycline for 24 h, changes in ER calcium concentrations [Ca^2+]ER were measured on a multiwell plate reader TECAN Spark 20 M at 37 °C. […] The time courses were recorded in each well. Fluorescence was evoked by a 560 nm excitation wavelength and collected in a bottom-read mode at 610 nm. […]
The dose–response curves were calculated using the software package GraphPad Prism version 8.3.1. […]

Protein sequences, listed by entry. Tags and fused reporters are not part of them.
UniProt E9Q401, whole entry: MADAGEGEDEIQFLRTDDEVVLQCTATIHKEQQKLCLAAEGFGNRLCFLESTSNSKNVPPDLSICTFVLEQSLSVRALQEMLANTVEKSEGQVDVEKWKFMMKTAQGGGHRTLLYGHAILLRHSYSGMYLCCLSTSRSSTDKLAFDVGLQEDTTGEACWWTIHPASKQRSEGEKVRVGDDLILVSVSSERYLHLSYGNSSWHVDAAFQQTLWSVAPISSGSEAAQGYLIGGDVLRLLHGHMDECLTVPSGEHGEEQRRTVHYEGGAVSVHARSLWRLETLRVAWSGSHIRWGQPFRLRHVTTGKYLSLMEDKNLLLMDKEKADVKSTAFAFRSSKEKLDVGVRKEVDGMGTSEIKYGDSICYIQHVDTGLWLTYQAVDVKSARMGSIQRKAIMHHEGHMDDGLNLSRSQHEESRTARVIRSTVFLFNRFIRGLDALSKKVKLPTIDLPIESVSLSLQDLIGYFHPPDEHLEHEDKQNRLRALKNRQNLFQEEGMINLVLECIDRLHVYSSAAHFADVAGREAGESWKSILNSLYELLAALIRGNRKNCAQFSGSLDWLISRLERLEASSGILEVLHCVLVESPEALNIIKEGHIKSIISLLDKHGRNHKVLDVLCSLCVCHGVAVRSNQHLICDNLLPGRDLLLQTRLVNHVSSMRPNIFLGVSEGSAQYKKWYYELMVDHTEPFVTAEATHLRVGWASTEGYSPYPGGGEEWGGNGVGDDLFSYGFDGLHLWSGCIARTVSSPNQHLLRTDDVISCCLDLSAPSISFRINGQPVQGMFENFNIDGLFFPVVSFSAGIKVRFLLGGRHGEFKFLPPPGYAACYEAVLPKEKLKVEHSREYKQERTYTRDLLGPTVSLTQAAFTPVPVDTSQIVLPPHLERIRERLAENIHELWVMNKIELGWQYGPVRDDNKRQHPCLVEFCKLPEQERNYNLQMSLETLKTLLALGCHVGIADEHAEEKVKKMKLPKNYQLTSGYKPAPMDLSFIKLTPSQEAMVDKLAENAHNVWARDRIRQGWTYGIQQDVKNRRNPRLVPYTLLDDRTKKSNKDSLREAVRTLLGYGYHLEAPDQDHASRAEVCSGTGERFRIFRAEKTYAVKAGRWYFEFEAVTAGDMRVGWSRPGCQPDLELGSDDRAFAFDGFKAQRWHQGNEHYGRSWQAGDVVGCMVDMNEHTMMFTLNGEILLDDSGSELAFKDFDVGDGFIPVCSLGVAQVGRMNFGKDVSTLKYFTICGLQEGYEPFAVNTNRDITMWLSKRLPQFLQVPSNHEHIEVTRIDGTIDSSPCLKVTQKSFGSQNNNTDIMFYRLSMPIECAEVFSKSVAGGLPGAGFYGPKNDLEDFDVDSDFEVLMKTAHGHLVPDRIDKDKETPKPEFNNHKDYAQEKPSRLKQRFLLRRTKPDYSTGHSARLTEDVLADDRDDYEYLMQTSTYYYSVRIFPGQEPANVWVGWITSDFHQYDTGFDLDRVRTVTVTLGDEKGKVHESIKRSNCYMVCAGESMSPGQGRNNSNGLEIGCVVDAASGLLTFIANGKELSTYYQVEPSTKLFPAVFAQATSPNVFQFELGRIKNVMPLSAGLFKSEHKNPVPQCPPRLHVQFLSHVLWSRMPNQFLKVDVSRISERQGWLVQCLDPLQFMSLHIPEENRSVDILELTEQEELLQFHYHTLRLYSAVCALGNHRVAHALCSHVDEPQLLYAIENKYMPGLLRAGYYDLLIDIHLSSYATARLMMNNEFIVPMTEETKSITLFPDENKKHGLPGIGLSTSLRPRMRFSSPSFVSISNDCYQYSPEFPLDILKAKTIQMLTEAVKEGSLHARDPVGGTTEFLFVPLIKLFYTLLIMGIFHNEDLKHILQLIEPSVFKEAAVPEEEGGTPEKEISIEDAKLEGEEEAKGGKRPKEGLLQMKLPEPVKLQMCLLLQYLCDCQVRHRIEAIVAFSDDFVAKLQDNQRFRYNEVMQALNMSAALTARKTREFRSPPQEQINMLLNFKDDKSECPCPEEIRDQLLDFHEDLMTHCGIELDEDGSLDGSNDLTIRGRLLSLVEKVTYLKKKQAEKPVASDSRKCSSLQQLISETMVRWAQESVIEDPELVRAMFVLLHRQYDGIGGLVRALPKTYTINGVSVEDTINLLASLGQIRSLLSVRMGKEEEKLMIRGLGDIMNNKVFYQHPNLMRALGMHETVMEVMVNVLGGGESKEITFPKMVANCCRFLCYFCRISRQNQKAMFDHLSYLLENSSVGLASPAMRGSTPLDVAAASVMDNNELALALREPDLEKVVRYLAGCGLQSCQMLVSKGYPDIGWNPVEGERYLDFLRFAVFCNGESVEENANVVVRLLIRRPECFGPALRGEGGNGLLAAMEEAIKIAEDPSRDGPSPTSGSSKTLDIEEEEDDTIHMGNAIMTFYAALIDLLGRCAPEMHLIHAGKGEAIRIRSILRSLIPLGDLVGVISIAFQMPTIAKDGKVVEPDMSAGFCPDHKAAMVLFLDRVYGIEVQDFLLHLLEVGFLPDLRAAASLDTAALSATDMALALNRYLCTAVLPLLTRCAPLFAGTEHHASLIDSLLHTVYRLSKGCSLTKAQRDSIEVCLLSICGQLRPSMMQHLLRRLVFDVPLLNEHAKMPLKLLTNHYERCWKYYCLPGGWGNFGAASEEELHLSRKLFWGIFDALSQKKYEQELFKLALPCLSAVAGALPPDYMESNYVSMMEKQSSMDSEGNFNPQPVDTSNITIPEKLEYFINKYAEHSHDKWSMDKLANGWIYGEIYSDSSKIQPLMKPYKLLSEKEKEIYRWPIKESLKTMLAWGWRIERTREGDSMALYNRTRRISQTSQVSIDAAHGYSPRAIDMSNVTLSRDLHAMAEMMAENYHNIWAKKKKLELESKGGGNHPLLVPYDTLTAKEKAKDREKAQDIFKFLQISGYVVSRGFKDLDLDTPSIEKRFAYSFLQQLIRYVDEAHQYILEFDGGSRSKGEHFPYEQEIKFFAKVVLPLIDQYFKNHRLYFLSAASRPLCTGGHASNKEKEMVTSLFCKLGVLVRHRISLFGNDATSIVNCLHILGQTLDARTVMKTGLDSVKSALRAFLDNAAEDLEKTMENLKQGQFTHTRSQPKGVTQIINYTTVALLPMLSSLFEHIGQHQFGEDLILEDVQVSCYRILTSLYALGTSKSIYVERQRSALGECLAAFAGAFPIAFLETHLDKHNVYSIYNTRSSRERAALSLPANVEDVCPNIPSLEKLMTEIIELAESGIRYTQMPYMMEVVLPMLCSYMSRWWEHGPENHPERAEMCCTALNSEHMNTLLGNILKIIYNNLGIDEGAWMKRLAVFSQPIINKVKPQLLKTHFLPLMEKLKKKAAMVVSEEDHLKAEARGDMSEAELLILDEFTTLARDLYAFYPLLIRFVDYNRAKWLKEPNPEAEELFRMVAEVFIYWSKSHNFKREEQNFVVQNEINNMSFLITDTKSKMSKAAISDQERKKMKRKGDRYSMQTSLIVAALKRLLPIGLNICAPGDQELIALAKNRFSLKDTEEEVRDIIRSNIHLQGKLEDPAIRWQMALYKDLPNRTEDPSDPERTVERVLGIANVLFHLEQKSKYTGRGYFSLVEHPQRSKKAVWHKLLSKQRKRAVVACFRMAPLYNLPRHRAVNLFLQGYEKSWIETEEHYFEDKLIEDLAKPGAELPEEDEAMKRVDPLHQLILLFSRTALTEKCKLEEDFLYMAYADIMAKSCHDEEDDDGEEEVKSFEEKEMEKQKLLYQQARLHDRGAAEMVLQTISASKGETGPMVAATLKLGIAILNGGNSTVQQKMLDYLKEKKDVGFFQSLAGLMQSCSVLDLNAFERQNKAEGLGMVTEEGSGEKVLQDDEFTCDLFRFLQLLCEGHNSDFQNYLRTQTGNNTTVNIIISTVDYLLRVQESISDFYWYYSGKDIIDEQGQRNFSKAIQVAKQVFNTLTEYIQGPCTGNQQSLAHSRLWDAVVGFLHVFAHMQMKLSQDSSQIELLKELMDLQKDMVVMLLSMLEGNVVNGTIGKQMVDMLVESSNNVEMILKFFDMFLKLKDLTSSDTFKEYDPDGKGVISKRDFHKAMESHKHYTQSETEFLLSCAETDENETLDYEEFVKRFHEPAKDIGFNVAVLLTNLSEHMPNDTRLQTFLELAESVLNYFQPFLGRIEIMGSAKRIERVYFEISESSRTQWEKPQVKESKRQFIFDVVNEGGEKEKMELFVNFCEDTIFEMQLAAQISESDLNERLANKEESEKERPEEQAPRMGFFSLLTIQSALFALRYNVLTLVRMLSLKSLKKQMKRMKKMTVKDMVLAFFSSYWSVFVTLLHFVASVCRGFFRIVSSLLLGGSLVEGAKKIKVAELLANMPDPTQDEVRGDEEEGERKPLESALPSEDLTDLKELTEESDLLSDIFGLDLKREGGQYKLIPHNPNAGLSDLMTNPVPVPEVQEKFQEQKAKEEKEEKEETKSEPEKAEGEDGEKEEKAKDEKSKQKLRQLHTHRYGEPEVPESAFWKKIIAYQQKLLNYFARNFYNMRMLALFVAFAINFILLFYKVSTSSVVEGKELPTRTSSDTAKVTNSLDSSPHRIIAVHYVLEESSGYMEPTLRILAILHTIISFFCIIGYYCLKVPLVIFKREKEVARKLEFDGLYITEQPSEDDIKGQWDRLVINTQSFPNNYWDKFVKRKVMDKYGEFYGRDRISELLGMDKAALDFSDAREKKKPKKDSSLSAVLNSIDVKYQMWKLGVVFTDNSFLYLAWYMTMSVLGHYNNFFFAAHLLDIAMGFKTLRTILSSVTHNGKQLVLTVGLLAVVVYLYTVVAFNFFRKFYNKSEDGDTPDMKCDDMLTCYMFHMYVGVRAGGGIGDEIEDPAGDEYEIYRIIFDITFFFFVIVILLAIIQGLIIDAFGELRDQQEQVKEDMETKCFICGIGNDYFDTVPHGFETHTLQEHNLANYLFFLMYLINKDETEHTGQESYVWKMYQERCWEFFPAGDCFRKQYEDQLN

For `COc1ccc2c(c1)CN(C)CCS2` [S107, 4-methyl-7-methoxy-2,3,4,5-tetrahydro-1,4-benzothiazepine, reference compound], the “effect on [Ca2+]ER / R-CEPIA1er fluorescence (F/F0)” value was “increase in R-CEPIA1er fluorescence”.

For the origin of these results see article PMC10726367, “1,4-Benzothiazepines with Cyclopropanol Groups and Their Structural Analogues Exhibit Both RyR2-Stabilizing and SERCA2a-Stimulating Activities” (Journal of Medicinal Chemistry, 2023).
